The nature of this assay: Selective index was evaluated from inhibitory concentrations of compound. Type of assay: functional.

SMILES strings stand for the structures.

With `Cc1cn([C@H]2C[C@H](N=[N+]=[N-])[C@@H](CO)O2)c(=O)[nH]c1=O` [ZIDOVUDINE], the Selectivity index amounted to 8000.

The values are drawn from ChEMBL document CHEMBL1130933, “Structure-based design of N-[2-(1-piperidinylethyl)]-N'-[2-(5-bromopyridyl)]-thiourea and N-[2-(1-piperazinylethyl)]-N'-[2-(5-bromopyridyl)]-thiourea as potent non-nucleoside inhibitors of HIV-1 reverse transcriptase” (Bioorg Med Chem Lett, 1998).
